The text below walks through data of patent publication US20260053861A1, “CELL COMPOSITIONS AND METHODS OF USING THE SAME” (THE REGENTS OF THE UNIVERSITY OF CALIFORNIA, priority 2022, published 2026).

Like-named read-outs stand apart in the source and are kept apart here.

The assay relates to hPSC-SCs.
Where [1] appears, read: HTS viability of hPSC-SCs in the presence of 30 mM glucose, Prestwick library, Table S4.

For Pirlindole mesylate, the z.score.t under setting [1] is given as −0.3313.

For the molecule `CC1CCc2cc(F)cc3c(=O)c(C(=O)O)cn1c23` (centres unmarked) [Flumequine], the z.score.t under setting [1] is listed as −1.461. As to Thiethylperazine malate, the z.score.t under setting [1] is reported as −1.464. Consider `CCCCc1oc2ccccc2c1C(=O)c1cc(Br)c(O)c(Br)c1` [Benzdromarone], for which the z.score.t was −1.459. For `CC(=O)O[C@]1(C(C)=O)CC[C@H]2[C@@H]3C=C(C)C4=CC(=O)CC[C@]4(C)[C@H]3CC[C@@]21C` [Megestrol acetate], the z.score.t under setting [1] is −1.465.
